Assay results published in paper PMC8958505, “Discovery of Potential Neuroprotective Agents against Paclitaxel-Induced Peripheral Neuropathy” (Journal of Medicinal Chemistry, 2022).
Where a name gives a salt, the structure may show the parent alone. Read-outs that look alike come from different tables or passages of the source.

Legend:
[1] = tested on: paclitaxel-induced neuropathy in C57BL/6 mice; test: von Frey filament test (mechanical) in paclitaxel-induced neuropathy; format: in vivo, mouse
Method: Three behavioral models of paclitaxel-induced neuropathy were used to verify the neuroprotective effect of CN016. Namely, thermal and mechanical nociceptive reactions described below were evaluated by tail immersion and von Frey filament tests, respectively, and motor coordination was assessed with the rotarod performance test (Supporting Information, Figure S1A,B). To mimic the clinical therapeutic regimen, CN016 (5, 10 and 20 mg/kg) was administrated to 7-week-old female C57BL/6 mice by intraperitoneal injection (IP) 1 h prior to each injection of paclitaxel (4.5 mg/kg) on four alternate days (days 1, 3, 5, and 7). Each test’s basal level was recorded before treatment, and additional sessions of behavior tests were performed weekly for five weeks (Figure 4A).
The baseline of every neurological behavior test was measured in 6-week-old C57BL/6J female mice prior to treatment. […] Mechanical hyperalgesia was evaluated by using von Frey filament (#2390, IITC Inc., USA), thermal sensitivity was determined by the tail immersion assay (water temperature: 48–49 °C), and motor coordination was assessed by rotarod (#7750, Ugo Basile Biological Research Apparatus, Italy). After the first drug implantation, the body weight was recorded every 6 days throughout the entire experiment.

ICR mice = test: Acute single-dose toxicity study; format: in vivo; conditions: for survival / survival rate: saline
Method: An acute single-dose toxicity study was conducted in male ICR mice. 7-week-old ICR male mice were intravenous bolus administered with CN016 dissolved in 0.9% sodium chloride solution by using dose escalation procedure to approach the toxicity of CN016. The treatment groups included 50, 100, 300, and 500 mg/kg dose levels and three to six mice for each group. The injection volume was calculated based on the individual body weight. […] Animal body weight was measured once daily during the 14 day observation period of the study. All animals were euthanized with 100% CO2 at the end of the study.

mice = test: Hemodynamic monitoring (systolic pressure, heart rate) and body weight; format: in vivo, mouse
Method: The baseline of every neurological behavior test was measured in 6-week-old C57BL/6J female mice prior to treatment. […] Three behavioral tests were performed on the same groups of animals once per week and no more than two behavioral tests on the same day. The first behavioral experiment was performed on the next day after the last course of treatment. Mechanical hyperalgesia was evaluated by using von Frey filament (#2390, IITC Inc., USA), thermal sensitivity was determined by the tail immersion assay (water temperature: 48–49 °C), and motor coordination was assessed by rotarod (#7750, Ugo Basile Biological Research Apparatus, Italy). After the first drug implantation, the body weight was recorded every 6 days throughout the entire experiment.
Noninvasive automatized tail-cuff system (Visitech Systems, Apex, NC, USA) was used to measure the systolic pressure and the heart rate of conscious mice. All mice were placed in a constant temperature platform at least three times to adapt the system prior to hemodynamic measurement. The root of the tail was mounted on the occlusion and sensor cuff after the mouse was placed in a constant temperature platform. Each mouse was measured for at least 15 repetitions to obtain the mean of systolic pressure and heart rate. The hemodynamic change of each mouse was measured at five different time points.

Adenosine A3 = Adenosine A3 (Homo sapiens, UniProt P0DMS8); test: LeadProfilingScreen: Adenosine A3; format: binding
Adrenergic β2 = Adrenergic β2 (Homo sapiens, UniProt P07550); test: LeadProfilingScreen: Adrenergic β2; format: binding; conditions: read-out: Inhibition (%), Adrenergic β2
Excerpt: LeadProfilingScreen (Total # of Assays: 67)
To evaluate, in LeadProfilingScreen, the activity of test compound CN168 (Panlabs # 1251879). […]
Summary of Significant Results
Biochemical assay results are presented as the percent inhibition of specific binding or activity throughout the report.
All other results are expressed in terms of that assay's quantitation method.
• For primary assays, only the lowest concentration with a significant response judged by the assays' criteria, is […]
• Where applicable, either the secondary assay results with the lowest dose/concentration meeting the significance […]
• Unless otherwise requested, primary screening in duplicate with quantitative data (e.g., IC50 ± SEM, Ki ± SEM and nH) are shown where applicable for individual requested assays. In screening packages, primary screening in duplicate with semi-quantitative data (e.g., estimated IC50, Ki and nH) are shown where applicable (concentration range of 4 log units); available secondary functional assays are carried out ([…]) and MEC or MIC determined only if active in primary assays >50% at 1 log unit below initial test concentration. […]

Endothelin ETA = Endothelin ETA (Homo sapiens, UniProt P25101); test: LeadProfilingScreen: Endothelin ETA; format: binding
Endothelin ETB = Endothelin ETB (Homo sapiens, UniProt P24530); test: LeadProfilingScreen: Endothelin ETB; format: binding
GABAB1A = GABAB1A (Homo sapiens, UniProt Q9UBS5); test: LeadProfilingScreen: GABAB1A; format: binding
Glutamate, NMDA, Agonism = test: LeadProfilingScreen: Glutamate, NMDA, Agonism; format: binding, rat; conditions: 10 μM
Imidazoline I2, Central = test: LeadProfilingScreen: Imidazoline I2, Central; format: binding, rat; conditions: 10 μM
Interleukin IL-1 R1 = Interleukin IL-1 R1 (Homo sapiens, UniProt P14778); test: LeadProfilingScreen: Interleukin IL-1 R1; format: binding
[2] = target: Leukotriene, Cysteinyl CysLT1 (Homo sapiens, UniProt Q9Y271); test: LeadProfilingScreen: Leukotriene, Cysteinyl CysLT1; format: binding
Melatonin MT1 = Melatonin MT1 (Homo sapiens, UniProt P48039); test: LeadProfilingScreen: Melatonin MT1; format: binding
[3] = target: Nicotinic Acetylcholine α1, Bungarotoxin (Homo sapiens, UniProt P02708+P07510+Q07001); format: binding; conditions: 10 μM
[4] = target: Serotonin (5-Hydroxytryptamine) 5-HT1A (Homo sapiens, UniProt P08908); test: LeadProfilingScreen: Serotonin 5-HT1A; format: binding
Sodium Channel, Site 2 = test: LeadProfilingScreen: Sodium Channel, Site 2; format: binding, rat; conditions: 10 μM
Nicotinic Acetylcholine = test: 67 off-target study: Nicotinic Acetylcholine (as named in Table S5); format: binding; conditions: 10 μM; item as named in Table S5
[5] = CN016 (5, 10 or 20 mg/kg) and paclitaxel (4.5 mg/kg)

Q: With `O=P(O)(O)CCN1CCC(Nc2cc(N3CCOCC3)nc(NCc3cn(CCCO)nn3)n2)CC1` [CN016, {2-[4-(2-{[1-(3-Hydroxy-propyl)-1H-[1,2,3]triazol-4-ylmethyl]-amino}-6-morpholin-4-yl-pyrimidin-4-ylamino)-piperidin-1-yl]-ethyl}-phosphonic Acid Hydrobromide Salt] as the compound, how does the “alleviation of mechanical allodynia (von Frey)” value ([1]; CN016 5 mg/kg IP 1 h prior to paclitaxel 4.5 mg/kg) read?
A: only moderately alleviated

Q: And the “alleviation of paclitaxel-induced mechanical allodynia (von Frey)” value ([1]; CN016 10 or 20 mg/kg IP 1 h prior to paclitaxel 4.5 mg/kg)?
A: able to alleviate

Q: What about the survival (ICR mice; 50 mg/kg IV) of the same compound?
A: 3/3

Q: What about the survival rate (ICR mice; 50 mg/kg IV) of the same compound?
A: 100%

Q: What about the survival (ICR mice; 100 mg/kg IV) of the same compound?
A: 6/6

Q: What about the survival rate (ICR mice; 100 mg/kg IV) of the same compound?
A: 100%

Q: And the survival (ICR mice; 300 mg/kg IV)?
A: 3/3

Q: And the survival rate (ICR mice; 300 mg/kg IV)?
A: 100%

Q: And the survival (ICR mice; 500 mg/kg IV)?
A: 3/3

Q: And the survival rate (ICR mice; 500 mg/kg IV)?
A: 100%

Q: And the “maximum tolerance dose (MTD)” value (ICR mice; intravenous, ICR mice)?
A: > 500 mg/kg

Q: And the “harmful effects, including heart rhythm, systolic blood pressure, and weight change” value (mice; 20 mg/kg)?
A: no harmful effects

Q: What about the heart rhythm variability (mice; [5]) of the same compound?
A: did not cause

Q: What about the “systolic blood pressure fluctuations” value (mice; [5]) of the same compound?
A: did not cause

Q: And the weight change (mice; [5])?
A: did not cause

Q: What about the inhibition at 10 µM (Adenosine A3) of the same compound?
A: 0%

Q: And the inhibition at 10 µM (Adrenergic β2)?
A: -4%

Q: And the inhibition at 10 µM (Endothelin ETA)?
A: 15%

Q: And the inhibition at 10 µM (Endothelin ETB)?
A: -1%

Q: And the inhibition at 10 µM (GABAB1A)?
A: 14%

Q: And the “Inhibition (%), Glutamate, NMDA, Agonism” value (Glutamate, NMDA, Agonism)?
A: -3%

Q: What about the “Inhibition (%), Imidazoline I2, Central” value (Imidazoline I2, Central) of the same compound?
A: -5%

Q: And the inhibition at 10 µM (Interleukin IL-1 R1)?
A: -3%

Q: What about the inhibition at 10 µM [2] of the same compound?
A: -8%

Q: And the inhibition at 10 µM (Melatonin MT1)?
A: 6%

Q: What about the “Inhibition (%), Nicotinic Acetylcholine α1, Bungarotoxin” value [3] of the same compound?
A: 7%

Q: And the “Inhibition (%), Nicotinic Acetylcholine α1, Bungarotoxin” value ([3]; listed as CN168, 10 µM)?
A: -6%

Q: And the inhibition at 10 µM [4]?
A: 2%

Q: And the “Inhibition (%), Sodium Channel, Site 2” value (Sodium Channel, Site 2)?
A: -1%

Q: What about the “Inhibition (%), Nicotinic Acetylcholine” value (Nicotinic Acetylcholine) of the same compound?
A: -6%
